Laboratory results published in ChEMBL document CHEMBL1134559 (J Med Chem, 2001).
pKi: −log10 of the molar value.

By UniProt entry, the sequences of proteins in these tests, tags left out.
UniProt P33535, whole entry: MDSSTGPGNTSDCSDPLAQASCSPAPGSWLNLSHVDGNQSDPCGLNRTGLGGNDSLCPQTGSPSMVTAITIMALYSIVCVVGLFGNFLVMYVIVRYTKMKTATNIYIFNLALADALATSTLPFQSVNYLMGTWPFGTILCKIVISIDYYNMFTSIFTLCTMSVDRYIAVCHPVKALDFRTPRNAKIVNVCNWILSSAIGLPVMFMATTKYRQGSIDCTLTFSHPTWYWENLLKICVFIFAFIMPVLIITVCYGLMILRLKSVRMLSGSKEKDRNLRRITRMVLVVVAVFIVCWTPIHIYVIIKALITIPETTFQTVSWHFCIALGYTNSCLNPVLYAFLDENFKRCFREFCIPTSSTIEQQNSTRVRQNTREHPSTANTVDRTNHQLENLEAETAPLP
UniProt P41143, whole entry: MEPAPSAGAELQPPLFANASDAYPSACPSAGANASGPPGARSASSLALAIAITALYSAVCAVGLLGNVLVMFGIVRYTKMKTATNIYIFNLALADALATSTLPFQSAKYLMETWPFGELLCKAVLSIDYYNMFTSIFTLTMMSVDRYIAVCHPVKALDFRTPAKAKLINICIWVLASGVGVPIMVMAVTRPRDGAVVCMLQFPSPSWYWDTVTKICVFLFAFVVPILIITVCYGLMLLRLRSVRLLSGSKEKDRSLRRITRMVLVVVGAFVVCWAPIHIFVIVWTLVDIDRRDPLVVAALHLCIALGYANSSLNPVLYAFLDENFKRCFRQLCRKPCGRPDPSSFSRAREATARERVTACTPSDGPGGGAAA

How the values were obtained:
[1] = molecular target: Mu-type opioid receptor (Rattus norvegicus, UniProt P33535); test: Antagonist activity on agonist (DAMGO) stimulated [35S]GTP-gamma-S, binding in cloned mu opioid receptors; type: functional
[2] = molecular target: Delta-type opioid receptor (Homo sapiens, UniProt P41143); test: Antagonist activity on agonist (SNC-80) stimulated [35S]GTP-gamma-S, binding in cloned opioid receptor mu1; type: functional

Row | SMILES | pKi [1] | pKi [2]
1 | Oc1ccc2c3c1O[C@H]1c4[nH]c5c(c4C[C@@]4(O)[C@@H](C2)N(CC2CC2)CC[C@]314)C[C@@]1(O)[C@H]2Cc3ccc(O)c4c3[C@@]1(CCN2CC1CC1)[C@H]5O4 [NORBINALTORPHIMINE] | 7.80 | –
2 | CC(C)[C@@H](CN1CC[C@@](C)(c2cccc(O)c2)[C@@H](C)C1)NC(=O)C1Cc2ccc(O)cc2CN1 (some centres not stated) | – | < 7.00
